Results as given in US5759573A, “Cyclodextrin liposomes encapsulating pharmacologic compounds and methods for their use” (DepoTech Corporation, priority 1995, dated 1998).

Assay: in vivo
Settings: mouse, plasma, ip, 10 mg/kg

CN(Cc1cnc2nc(N)nc(N)c2n1)c1ccc(C(=O)N[C@@H](CCC(=O)O)C(=O)O)cc1 [unencapsulated methotrexate, methotrexate]
Cmax: 3.3 ± 0.03 µM
